Laboratory results: US20200095339A1

Chains of the proteins cited; added tags and fusions are not shown. Lines headed by an entry give the natural chain unless they say otherwise; changes in a name come on top.
UniProt Q5TFQ8: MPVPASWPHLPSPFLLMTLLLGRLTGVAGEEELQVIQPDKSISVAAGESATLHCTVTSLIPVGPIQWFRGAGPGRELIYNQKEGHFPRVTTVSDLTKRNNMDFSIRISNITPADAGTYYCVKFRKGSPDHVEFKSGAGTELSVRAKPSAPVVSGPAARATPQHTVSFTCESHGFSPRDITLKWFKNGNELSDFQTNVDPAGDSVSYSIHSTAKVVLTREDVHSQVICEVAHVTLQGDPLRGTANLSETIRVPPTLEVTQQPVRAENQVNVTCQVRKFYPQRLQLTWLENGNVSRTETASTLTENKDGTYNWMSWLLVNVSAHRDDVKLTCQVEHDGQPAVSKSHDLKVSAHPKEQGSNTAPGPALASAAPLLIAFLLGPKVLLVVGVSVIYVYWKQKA

How the values were obtained:
[1] = biological target: human CD47 (human) (UniProt Q08722); assay: cell-based or functional assay
[2] = biological target: human CD47 (human) (UniProt Q08722); assay: FACS competition on Jurkat cells against 25 nM labelled SIRPα-Fc
[3] = biological target: human CD47 (human) (UniProt Q08722); assay: FACS binding to Jurkat cells (CD20-CD47+), % positive cells against protein concentration; value from the EC50 (nM) table beside the curves
[4] = biological target: human CD47 (human) (UniProt Q08722); assay: FACS competition on Jurkat cells: unlabelled SIRPα-Fc varied against 25 nM labelled SIRPα-Fc (sheet: SIRPa-Fc-FITC(25nM); text: biotin-SIRPα-Fc detected with FITC-streptavidin). The table prints no unit, nM is taken from the concentration axis

Substance: SIRPα-Fc (from UniProt Q5TFQ8 30-163) (Fc fusion)
- phagocytosis of HL-60 cells by mouse macrophage cell line Ana-1, EC50 [1]: 0.14 µg/mL
- IC50 (read off the curve) [2]: 20 nM
- EC50 [3]: 0.03 nM
- IC50 [4]: 18.8 nM
